# Reference: ChEMBL document CHEMBL1128004, “Ketones related to the benzoate 5-HT4 receptor antagonist RS-23597 are high affinity partial agonists” (Bioorg Med Chem Lett, 1994)
# Chains of the proteins cited; added tags and fusions are not shown. Lines headed by an entry give the natural chain unless they say otherwise; changes in a name come on top.
# UniProt Q13639: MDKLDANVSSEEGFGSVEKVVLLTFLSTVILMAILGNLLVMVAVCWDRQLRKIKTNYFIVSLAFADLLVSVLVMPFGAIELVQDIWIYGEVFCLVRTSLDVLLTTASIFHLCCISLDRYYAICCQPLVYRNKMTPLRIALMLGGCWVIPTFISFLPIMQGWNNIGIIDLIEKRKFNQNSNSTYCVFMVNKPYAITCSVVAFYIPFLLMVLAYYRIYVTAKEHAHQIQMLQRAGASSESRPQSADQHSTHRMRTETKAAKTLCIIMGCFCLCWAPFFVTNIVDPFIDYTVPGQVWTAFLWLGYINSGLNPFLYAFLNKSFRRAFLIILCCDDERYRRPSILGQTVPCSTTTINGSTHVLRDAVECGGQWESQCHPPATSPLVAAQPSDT
# Target: 5-hydroxytryptamine receptor 4 (Homo sapiens) (UniProt Q13639)
# Test: Intrinsic activity relative to the 5-HT was determined
# Assay type: functional
# Conditions: Rattus norvegicus
compound,measurement,value
CCCCN1CCC(CCC(=O)c2cc(Cl)c(N)cc2OC)CC1,Intrinsic activity,0.6
